In patent US7399744B2, “Methods for affecting body composition” (Amylin Pharmaceuticals, Inc., priority 2004, dated 2008):

Experiments:
[1] = biological target: T1, amylin receptors (Rattus norvegicus, UniProt P32214+Q9JJ74); assay: Receptor binding assay (competition with 125I Bolton Hunter rat amylin, basal forebrain membranes)
T1 construct: This basal forebrain tissue, containing the nucleus accumbens and surrounding regions, was weighed and homogenized; from tissue; host or cells: rat basal forebrain (nucleus accumbens and surrounding regions) membranes
T1 sequence (P32214 25-516): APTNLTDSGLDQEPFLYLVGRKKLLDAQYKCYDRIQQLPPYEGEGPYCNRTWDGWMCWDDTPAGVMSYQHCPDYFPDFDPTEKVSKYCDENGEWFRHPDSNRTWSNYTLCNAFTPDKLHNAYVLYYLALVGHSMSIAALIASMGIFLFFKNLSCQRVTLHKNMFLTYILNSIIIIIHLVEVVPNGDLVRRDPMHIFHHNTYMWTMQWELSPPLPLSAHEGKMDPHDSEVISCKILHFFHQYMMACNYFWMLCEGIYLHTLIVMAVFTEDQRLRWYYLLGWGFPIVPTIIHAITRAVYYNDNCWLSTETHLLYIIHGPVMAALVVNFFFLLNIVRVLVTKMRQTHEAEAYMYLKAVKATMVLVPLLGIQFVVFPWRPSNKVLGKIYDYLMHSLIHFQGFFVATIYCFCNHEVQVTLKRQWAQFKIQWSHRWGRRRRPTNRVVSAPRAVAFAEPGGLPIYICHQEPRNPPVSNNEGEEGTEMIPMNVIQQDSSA
T1 sequence (Q9JJ74 27-148): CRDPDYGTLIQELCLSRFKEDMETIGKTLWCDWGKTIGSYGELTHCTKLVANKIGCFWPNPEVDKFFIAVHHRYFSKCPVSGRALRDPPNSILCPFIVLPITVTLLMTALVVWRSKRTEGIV

[2] = test system: insulin-stimulated glycogen synthesis in soleus muscle; assay: Soleus muscle assay; assay type: cell-based, rat; conditions: for EC50: rat soleus muscle, […] insulin, inhibition of glucose incorporation into glycogen
[3] = Solubility and stability compared to human amylin; assay type: physicochemical
[4] = Amylin versus pramlintide in DIO Levin rats (Example 5); assay type: in vivo, rat; conditions: 76 nmol/kg/day by osmotic mini-pump for 24 days
[5] = Adsorption onto glass container in liquid form; assay type: physicochemical

SMILES	compete with amylin in the receptor binding assay [1]	IC50 ([1]; read-out: Receptor Binding) [nM]	amylin agonist action in the soleus muscle assay [2]	antagonist activity as measured by the soleus muscle assay [2]	EC50 [2] [nM]	solubility and stability characteristics when compared to human amylin [3]	IC50 [1] [nM]	slowing body weight gain [4]	effects on body composition ([4]; rodent NMR)	tendency to adsorb onto the glass in a glass container [5]
CC(C)C[C@H](NC(=O)[C@H](CCCNC(=N)N)NC(=O)[C@H](CCC(N)=O)NC(=O)[C@@H](NC(=O)[C@H](C)NC(=O)[C@@H]1CSSC[C@H](NC(=O)[C@@H](N)CCCCN)C(=O)N[C@@H](CC(N)=O)C(=O)N[C@@H]([C@@H](C)O)C(=O)N[C@@H](C)C(=O)N[C@@H]([C@@H](C)O)C(=O)N1)[C@@H](C)O)C(=O)N[C@@H](C)C(=O)N[C@@H](CC(N)=O)C(=O)N[C@@H](Cc1ccccc1)C(=O)N[C@@H](CC(C)C)C(=O)N[C@H](C(=O)N[C@@H](Cc1c[nH]cn1)C(=O)N[C@@H](CO)C(=O)N[C@@H](CO)C(=O)N[C@@H](CC(N)=O)C(=O)N[C@@H](CC(N)=O)C(=O)N[C@@H](Cc1ccccc1)C(=O)NCC(=O)N1CCC[C@H]1C(=O)N[C@H](C(=O)N[C@@H](CC(C)C)C(=O)N1CCC[C@H]1C(=O)N1CCC[C@H]1C(=O)N[C@H](C(=O)N[C@@H](CC(N)=O)C(=O)N[C@H](C(=O)NCC(=O)N[C@@H](CO)C(=O)N[C@@H](CC(N)=O)C(=O)N[C@H](C(=O)N[C@@H](Cc1ccc(O)cc1)C(N)=O)[C@@H](C)O)C(C)C)[C@@H](C)O)C(C)C)C(C)C [^25Pro^26Val^28,29Pro-h-Amylin]	compete with amylin	0.018	act as amylin agonists	negligible	4.68	more desirable	–	–	–	–
CC[C@H](C)[C@H](NC(=O)[C@@H]1CCCN1C(=O)CNC(=O)[C@H](Cc1ccccc1)NC(=O)[C@H](CC(N)=O)NC(=O)[C@H](CC(N)=O)NC(=O)[C@H](CO)NC(=O)[C@H](CO)NC(=O)[C@H](Cc1c[nH]cn1)NC(=O)[C@@H](NC(=O)[C@H](CC(C)C)NC(=O)[C@H](Cc1ccccc1)NC(=O)[C@H](CC(N)=O)NC(=O)[C@H](C)NC(=O)[C@H](CC(C)C)NC(=O)[C@H](CCCNC(=N)N)NC(=O)[C@H](CCC(N)=O)NC(=O)[C@@H](NC(=O)[C@H](C)NC(=O)[C@@H]1CSSC[C@H](N)C(=O)N[C@@H](CC(N)=O)C(=O)N[C@@H]([C@@H](C)O)C(=O)N[C@@H](C)C(=O)N[C@@H]([C@@H](C)O)C(=O)N1)[C@@H](C)O)C(C)C)C(=O)N[C@@H](CC(C)C)C(=O)N1CCC[C@H]1C(=O)N1CCC[C@H]1C(=O)N[C@H](C(=O)N[C@@H](CC(N)=O)C(=O)N[C@H](C(=O)NCC(=O)N[C@@H](CO)C(=O)N[C@@H](CC(N)=O)C(=O)N[C@H](C(=O)N[C@@H](Cc1ccc(O)cc1)C(N)=O)[C@@H](C)O)C(C)C)[C@@H](C)O [des-^1Lys^25,28,29Pro-h-Amylin]	compete with amylin	0.014	act as amylin agonists	negligible	4.15	–	–	–	–	–
CC[C@H](C)[C@H](NC(=O)[C@@H]1CCCN1C(=O)CNC(=O)[C@H](Cc1ccccc1)NC(=O)[C@H](CC(N)=O)NC(=O)[C@H](CC(N)=O)NC(=O)[C@H](CO)NC(=O)[C@H](CO)NC(=O)[C@H](Cc1c[nH]cn1)NC(=O)[C@@H](NC(=O)[C@H](CC(C)C)NC(=O)[C@H](Cc1ccccc1)NC(=O)[C@H](CC(N)=O)NC(=O)[C@H](C)NC(=O)[C@H](CC(C)C)NC(=O)[C@H](CCCNC(=N)N)NC(=O)[C@H](CCC(N)=O)NC(=O)[C@@H](NC(=O)[C@H](C)NC(=O)[C@@H]1CSSC[C@H](N)C(=O)N[C@@H](CC(N)=O)C(=O)N[C@@H]([C@@H](C)O)C(=O)N[C@@H](C)C(=O)N[C@@H]([C@@H](C)O)C(=O)N1)[C@@H](C)O)C(C)C)C(=O)N[C@@H](CC(C)C)C(=O)N1CCC[C@H]1C(=O)N[C@@H](CO)C(=O)N[C@H](C(=O)N[C@@H](CC(N)=O)C(=O)N[C@H](C(=O)NCC(=O)N[C@@H](CO)C(=O)N[C@@H](CC(N)=O)C(=O)N[C@H](C(=O)N[C@@H](Cc1ccc(O)cc1)C(N)=O)[C@@H](C)O)C(C)C)[C@@H](C)O [des-^1Lys^25,28Pro-h-Amylin]	–	0.085	–	–	7.7	–	–	–	–	–
CC[C@H](C)[C@H](NC(=O)[C@H](C)NC(=O)CNC(=O)[C@H](Cc1ccccc1)NC(=O)[C@H](CC(N)=O)NC(=O)[C@H](CC(N)=O)NC(=O)[C@H](CO)NC(=O)[C@H](CO)NC(=O)[C@H](Cc1c[nH]cn1)NC(=O)[C@@H](NC(=O)[C@H](CC(C)C)NC(=O)[C@H](Cc1ccccc1)NC(=O)[C@H](CC(N)=O)NC(=O)[C@H](C)NC(=O)[C@H](CC(C)C)NC(=O)[C@H](CCCNC(=N)N)NC(=O)[C@H](CCC(N)=O)NC(=O)[C@@H](NC(=O)[C@H](C)NC(=O)[C@@H]1CSSC[C@H](NC(=O)[C@H](C)N)C(=O)N[C@@H](CC(N)=O)C(=O)N[C@@H]([C@@H](C)O)C(=O)N[C@@H](C)C(=O)N[C@@H]([C@@H](C)O)C(=O)N1)[C@@H](C)O)C(C)C)C(=O)N[C@@H](CC(C)C)C(=O)N[C@@H](CO)C(=O)N[C@@H](CO)C(=O)N[C@H](C(=O)N[C@@H](CC(N)=O)C(=O)N[C@H](C(=O)NCC(=O)N[C@@H](CO)C(=O)N[C@@H](CC(N)=O)C(=O)N[C@H](C(=O)N[C@@H](Cc1ccc(O)cc1)C(N)=O)[C@@H](C)O)C(C)C)[C@@H](C)O [^1Ala-h-Amylin]	–	–	–	–	12.8	–	0.148	–	–	–
CC[C@H](C)[C@H](NC(=O)[C@@H]1CCCN1C(=O)CNC(=O)[C@H](Cc1ccccc1)NC(=O)[C@H](CC(N)=O)NC(=O)[C@H](CC(N)=O)NC(=O)[C@H](CO)NC(=O)[C@H](CO)NC(=O)[C@H](CCCNC(=N)N)NC(=O)[C@@H](NC(=O)[C@H](CC(C)C)NC(=O)[C@H](Cc1ccccc1)NC(=O)[C@H](CC(N)=O)NC(=O)[C@H](C)NC(=O)[C@H](CC(C)C)NC(=O)[C@H](CCCNC(=N)N)NC(=O)[C@H](CCC(N)=O)NC(=O)[C@@H](NC(=O)[C@H](C)NC(=O)[C@@H]1CSSC[C@H](NC(=O)[C@@H](N)CCCCN)C(=O)N[C@@H](CC(N)=O)C(=O)N[C@@H]([C@@H](C)O)C(=O)N[C@@H](C)C(=O)N[C@@H]([C@@H](C)O)C(=O)N1)[C@@H](C)O)C(C)C)C(=O)N[C@@H](CC(C)C)C(=O)N1CCC[C@H]1C(=O)N[C@@H](CO)C(=O)N[C@H](C(=O)N[C@@H](CC(N)=O)C(=O)N[C@H](C(=O)NCC(=O)N[C@@H](CO)C(=O)N[C@@H](CC(N)=O)C(=O)N[C@H](C(=O)N[C@@H](Cc1ccc(O)cc1)C(N)=O)[C@@H](C)O)C(C)C)[C@@H](C)O [^18Arg^25,28Pro-h-Amylin]	compete with amylin	0.032	act as amylin agonists	negligible	2.83	more desirable	–	–	–	–
CC[C@H](C)[C@H](NC(=O)[C@@H]1CCCN1C(=O)CNC(=O)[C@H](Cc1ccccc1)NC(=O)[C@H](CC(N)=O)NC(=O)[C@H](CC(N)=O)NC(=O)[C@H](CO)NC(=O)[C@H](CO)NC(=O)[C@H](Cc1c[nH]cn1)NC(=O)[C@@H](NC(=O)[C@H](CC(C)C)NC(=O)[C@H](Cc1ccccc1)NC(=O)[C@H](CC(N)=O)NC(=O)[C@H](C)NC(=O)[C@H](CC(C)C)NC(=O)[C@H](CCCNC(=N)N)NC(=O)[C@H](CCC(N)=O)NC(=O)[C@@H](NC(=O)[C@H](C)NC(=O)[C@@H]1CSSC[C@H](NC(=O)[C@@H](N)CCCCN)C(=O)N[C@@H](CC(N)=O)C(=O)N[C@@H]([C@@H](C)O)C(=O)N[C@@H](C)C(=O)N[C@@H]([C@@H](C)O)C(=O)N1)[C@@H](C)O)C(C)C)C(=O)N[C@@H](CC(C)C)C(=O)N1CCC[C@H]1C(=O)N1CCC[C@H]1C(=O)N[C@H](C(=O)N[C@@H](CC(N)=O)C(=O)N[C@H](C(=O)NCC(=O)N[C@@H](CO)C(=O)N[C@@H](CC(N)=O)C(=O)N[C@H](C(=O)N[C@@H](Cc1ccc(O)cc1)C(N)=O)[C@@H](C)O)C(C)C)[C@@H](C)O [^25,28,29Pro-h-Amylin]	compete with amylin	0.01	act as amylin agonists	negligible	3.71	more desirable	–	significant effect	favorable effects	does not have a tendency to adsorb onto the glass

Read-outs that look alike come from different tables or passages of the source.
